One test concerns PXL1 (PXL1^LRR). Description: Gel filtration-MALDI-TOF identification of peptides copurified with PXL1 LRR. The conditions noted are these: PXL1^LRR incubated with synthesized peptide mixture (0.1 mg each), 10 mM Bis-Tris pH 6.0, 100 mM NaCl, on ice 1 h, Superdex 200. The test is classed as binding, Arabidopsis. In general terms: Size exclusion chromatography separates by hydrodynamic size, large species first.

Amino acid sequences for entries named in this document (tags omitted). Residues count along the entry.
UniProt Q9FRS6, 24-639 limits assumed: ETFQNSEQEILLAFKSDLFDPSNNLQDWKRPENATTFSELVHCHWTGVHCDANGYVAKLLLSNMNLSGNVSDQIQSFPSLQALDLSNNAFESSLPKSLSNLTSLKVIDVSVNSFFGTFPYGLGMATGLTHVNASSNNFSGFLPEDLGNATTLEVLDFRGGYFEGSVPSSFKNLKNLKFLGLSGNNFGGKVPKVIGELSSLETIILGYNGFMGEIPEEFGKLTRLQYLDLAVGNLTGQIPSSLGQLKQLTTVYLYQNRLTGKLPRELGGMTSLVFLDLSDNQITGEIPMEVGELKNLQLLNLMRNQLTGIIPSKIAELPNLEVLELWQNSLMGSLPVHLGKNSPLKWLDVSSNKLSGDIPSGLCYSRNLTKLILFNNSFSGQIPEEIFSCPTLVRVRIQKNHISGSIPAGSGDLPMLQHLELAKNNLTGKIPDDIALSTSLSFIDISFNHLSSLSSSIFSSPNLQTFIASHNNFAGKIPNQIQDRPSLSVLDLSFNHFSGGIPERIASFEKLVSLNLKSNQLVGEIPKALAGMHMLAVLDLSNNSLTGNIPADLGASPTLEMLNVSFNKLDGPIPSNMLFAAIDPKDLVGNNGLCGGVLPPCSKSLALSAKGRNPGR

In test [1] the target is T1, PXL1^LRR (Arabidopsis thaliana, UniProt Q9FRS6). Kind of test: ITC, CLE peptide with PXL1^LRR. The test is classed as binding. To be noted: 2 µM (literature) vs CLE19 0.35 µM. Here is the method:
Both fusion proteins were expressed in High Five cells at 22 °C and purified using an Ni-NTA (Novagen) column. After elution and concentration, the proteins were further purified by size-exclusion chromatography (HiLoad 200, GE Healthcare) in buffer containing 10 mM Bis-Tris, pH 6.0, and 100 mM NaCl. […] The ITC data was analyzed using MicroCal Origin 7.0.
On the technique in general: ITC needs no label: the signal is the heat of the interaction.

In test [2] the target is T1, PXL1^LRR. To be noted: read-out: binding affinity, CLE41/TDIF-PXL1; ITC; ref [16],[32] (Zhang et al., 2016); cited from earlier work. As to the method:
Among these three RLK proteins, both PXL1 and PXL2 directly interact with CLE19, with dissociation constants (Kd) of ~346 nM and ~714 nM, respectively (Figs. 1b and 5i), whereas PXY has only a weak interaction with CLE19 (Fig. 5j). […] P values are caculated by chi-square, and n indicates anther count used for each genotype. (g) Expression of PXL1, PXL2 and PXY genes in inflorescenes, anther ... || page 15: as Fig. 5i-j of the revised manuscript, (c) was shown as was shown as Fig. 5k, and (d-e) were shown as Fig. S8a-b in the revised manuscript. Reference: 1. […] Cell Res. 26, 543–555 (2016). 2. For many of the experiments, the number of replicates performed is not clear. The number of needs to be explicitly stated in the manuscript, including in figure legends. Response: Thanks for pointing out this. The number of replicates is three in all the ... || (+ 1 further places)

Test [3] addresses T1, PXL1^LRR. To be noted: in vitro; ref [16],[32]; cited from earlier work. As to the method:
(§1) Among these three RLK proteins, both PXL1 and PXL2 directly interact with CLE19, with dissociation constants (Kd) of ~346 nM and ~714 nM, respectively (Figs. 1b and 5i), whereas PXY has only a weak interaction with CLE19 (Fig. 5j). In addition, both PXL1 and PXL2, but not PXY, could form receptor–coreceptor complexes with SER ...

A further test relates to PXL2^LRR. The conditions noted are these: in vitro; ref [16],[32]; cited from earlier work. Here is the method:
as §1

The test system of a further test is PXY^LRR. The conditions noted are these: in vitro; ref [16],[32]; cited from earlier work. Here is the method:
as §1

Another test has as its system SERK2-PXY interaction. The conditions noted are these: ref Zhang et al., 2016; cited from earlier work. From the text:
It is possible that PXL1/PXL2/PXY form homod ...

A further test has as its system LRR domain of PXY. The conditions noted are these: gel-filtration MS assay, ref Song et al., 2016, Qian et al., 2018, Zhang et al.; cited from earlier work. The source says:
P values are caculated by chi-square, and n indicates anther count used for each genotype. (g) Expression of PXL1, PXL2 and PXY genes in inflorescenes, anther ...

Each structure is given as a SMILES string. pKd: −log10 of the molar value.

For `CCC(C)C(NC(=O)C1CCCN1C(=O)C(CC(N)=O)NC(=O)C1CC(O)CN1C(=O)CNC(=O)C(CO)NC(=O)C1CC(O)CN1C(=O)C(NC(=O)C(CCC(=O)O)NC(=O)C(N)Cc1c[nH]cn1)C(C)C)C(=O)NC(CO)C(=O)NC(CC(N)=O)C(=O)O` (centres unmarked), the “CLE peptide copurified with PXL1” value in the test with PXL1 (PXL1^LRR) is given as “CLE19 was the only CLE peptide that co-purified with PXL1”. Also, on PXL1^LRR [1], the “affinity for PXL1 relative to CLE19 (fold lower)” value is given as 6 fold. For the same compound, on PXL1^LRR [2], the pKd is 5.70. In addition, the “direct binding to PXL1^LRR (immunoprecipitation)” value on PXL1^LRR [3] is recorded as “could directly bind”. Further, in the test with PXL2^LRR, the “direct binding to PXL2^LRR (immunoprecipitation)” value was “could directly bind”. Moreover, in the test on PXY^LRR, the “direct binding to PXY^LRR (immunoprecipitation)” value was “could directly bind”. The SERK2-PXY interaction entry with SERK2-PXY interaction was “can induce SERK2-PXY interaction”. In addition, the “binding to LRR domain of PXY” value in the test with LRR domain of PXY is reported as “able to bind”.

Values taken from article PMC10247778, “PXL1 and SERKs act as receptor–coreceptor complexes for the CLE19 peptide to regulate pollen development” (Nature Communications, 2023).
